Measured values reported in publication PMC3655598, “Application of IgG-Derived Natural Treg Epitopes (IgG Tregitopes) to Antigen-Specific Tolerance Induction in a Murine Model of Type 1 Diabetes” (Journal of Diabetes Research, 2013).

Assays:
DRB1*0401 = DRB1*0401 (Homo sapiens, UniProt P01903+P01911, A100K/A169T/F76Y/I96L/K127E/L162R/M171V/N62H/P40V/Q125Y/R42H/S133A/S149N/S66Y/V115G/V209L/W38E); experiment: biochemical
DRB1*0101 = DRB1*0101 (Homo sapiens, UniProt P01903+P01911, A100R/D57E/F55L/F60I/F76Y/I96L/L162R/M171V/P40L/Q125E/R42F/V115G/Y59C); conditions: read-out: DRB1*0101 IC50; competition with biotin-Flu-HA 306–318 at 0.1 μM, 24 h, 37°C; NB = non-binder
DRB1*0701 = DRB1*0701 (Homo sapiens, UniProt P01903+P01911, A100R/A102G/A103Q/D57E/D86V/E43K/F76Y/K127E/L162R/M171V/P40G/Q125H/Q99D/R33Q/R42Y/R54Q/S133A/S66F/T210M/V115G/Y107V/Y59L/Y89S); experiment: biochemical
DRB1*1501 = biological target: T1, DRB1*1501 (Homo sapiens, UniProt P01903+P01911); experiment: competition-based HLA binding assay; conditions: competition with biotin-MBP 84–102 at 0.5 μM, 24 h, 37°C; NB = non-binder
T1 construct: gift: William Kwok, Benaroya Institute, Seattle

## CC[C@H](C)[C@H](NC(=O)[C@H](CCCCN)NC(=O)[C@H](Cc1ccc(O)cc1)NC(=O)[C@H](CCCCN)NC(=O)[C@H](CCCCN)NC(=O)[C@@H](N)CS)C(=O)N[C@@H](Cc1c[nH]c2ccccc12)C(=O)N[C@@H](CCSC)C(=O)N[C@@H](Cc1c[nH]cn1)C(=O)N[C@H](C(=O)N[C@@H](CC(=O)O)C(=O)N[C@@H](C)C(=O)N[C@@H](C)C(=O)N[C@@H](Cc1c[nH]c2ccccc12)C(=O)NCC(=O)NCC(=O)NCC(=O)N[C@@H](CC(C)C)C(=O)N[C@@H](CC(C)C)C(=O)O)C(C)C [GAD65_354–372]
DRB1*0401
  IC50: 6.4 µM
DRB1*0101
  IC50: > 50 µM
DRB1*0701
  IC50: < 5 µM
DRB1*1501
  IC50: > 50 µM
